Laboratory results: patent US20020082273A1, “Agents for use in the treatment of alzheimer's disease” (priority 1998, published 2002)

Tested on: SDS-resistant Aβ polymers extracted from AD brains
Conditions: 1 mM or 5 mM chelator

bathocuproinedisulfonic acid [BC]
amount of monomer Aβ: significantly increased the amount of monomer Aβ
